{"source": "patent US20040077634A1", "about": "“Treatment of diseases characterized by excessive or insufficient cell death” (priority 2001, published 2004)", "molecular_target": "T1, recombinant caspase-3 (Homo sapiens, UniProt P42574)", "T1 sequence (P42574 29-175 limits assumed)": "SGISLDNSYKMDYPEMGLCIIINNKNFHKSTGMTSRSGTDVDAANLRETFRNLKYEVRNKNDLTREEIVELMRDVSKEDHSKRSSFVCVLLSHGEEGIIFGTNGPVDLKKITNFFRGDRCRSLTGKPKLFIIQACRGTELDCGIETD", "T1 sequence (P42574 176-277 limits assumed)": "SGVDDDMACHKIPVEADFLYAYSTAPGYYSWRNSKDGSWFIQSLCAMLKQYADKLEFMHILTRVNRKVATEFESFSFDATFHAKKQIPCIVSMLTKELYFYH", "assay": "Recombinant caspase-3 activity, cleavage of DEVD-AFC", "format": "biochemical", "conditions": "0.1 μM DEVD-CHO", "protocol": "The inhibition of the DEVDase activity in the in vitro caspase activation system could be due to a direct inhibition of caspase-9, -3, or -7 activities, or to the inhibition of the apoptosome formation. To test if compounds a, f, and g were specific caspase inhibitors, recombinant caspase-3 and caspase-9 were incubated with the three compounds and the enzymatic activities of caspases were monitored by analysing the cleavage of the caspase-3 substrate DEVD-AFC or the caspase-9 substrate LEHD-AFC, respectively."}
{"smiles": "CC(=O)N[C@@H](CC(=O)O)C(=O)N[C@@H](CCC(=O)O)C(=O)N[C@H](C(=O)N[C@H](C=O)CC(=O)O)C(C)C", "note": "[DEVD-CHO, reference compound]", "values": [{"measurement": "inhibition of recombinant caspase-3 activity", "value": "almost total inhibition"}]}
